{"sequences": {"note": "Protein sequences, listed by entry. Tags and fused reporters are not part of them.", "UniProt P08684, whole entry": "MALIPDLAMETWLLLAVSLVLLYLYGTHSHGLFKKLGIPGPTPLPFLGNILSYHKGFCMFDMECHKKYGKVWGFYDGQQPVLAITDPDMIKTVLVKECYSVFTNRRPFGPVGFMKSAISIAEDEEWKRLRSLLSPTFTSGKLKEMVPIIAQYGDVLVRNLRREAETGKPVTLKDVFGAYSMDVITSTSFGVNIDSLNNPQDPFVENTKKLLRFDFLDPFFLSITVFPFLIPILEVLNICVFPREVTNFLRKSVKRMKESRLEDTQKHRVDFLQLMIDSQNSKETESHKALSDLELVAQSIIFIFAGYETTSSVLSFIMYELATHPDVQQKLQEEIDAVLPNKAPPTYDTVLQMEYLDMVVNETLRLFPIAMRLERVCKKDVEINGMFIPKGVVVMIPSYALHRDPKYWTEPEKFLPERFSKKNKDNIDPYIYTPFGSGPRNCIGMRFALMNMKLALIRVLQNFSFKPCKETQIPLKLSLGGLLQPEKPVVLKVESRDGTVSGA"}, "source": "patent US20240174690A1", "about": "“ANNULATED 2-AMINO-3-CYANO THIOPHENES AND DERIVATIVES FOR THE TREATMENT OF CANCER” (BOEHRINGER INGELHEIM INTERNATIONAL GMBH, priority 2021, published 2024)", "key": {"[1]": {"test_system": "KRAS G12C-dependent Ba/F3 cells", "experiment": "Ba/F3 proliferation assay, KRAS G12C", "conditions": "read-out: KRAS G12C Ba/F3 IC50, 72 h, AlamarBlue", "method": "Ba/F3 cells are ordered from DSMZ (ACC300, Lot17) and grown in RPMI-1640 (ATCC 30-2001)+10% FCS+10 ng/mL IL-3 at 37° C. in 5% CO2 atmosphere. Plasmids containing KRASG12 mutants (i.e. […], G12C, G12V) are obtained from GeneScript. To generate KRASG12-dependent Ba/F3 models, Ba/F3 cells are transduced with retroviruses containing vectors that harbor KRASG12 isoforms. Platinum-E cells (Cell Biolabs) are used for retrovirus packaging. Retrovirus is added to Ba/F3 cells. To ensure infection, 4 μg/mL polybrene is added and cells are spinfected. Infection efficiency is confirmed by measuring GFP-positive cells using a cell analyzer. Cells with an infection efficiency of 10% to 20% are further cultivated and puromycin selection with 1 μg/mL is initiated. As a control, parental Ba/F3 cells are used to show selection status. Selection is considered successful when parental Ba/F3 cells cultures died. […]\nFor proliferation assays, Ba/F3 cells are seeded into 384-well plates at 1.5×10^3 cells/60 μL in growth media (RPMI-1640+10% FCS). […] AlamarBlue™ (ThermoFisher), a viability stain, is added and fluorescence measured in the PerkinElmer Envision HTS Multilabel Reader. The raw data are imported into and analyzed with the Boehringer Ingelheim proprietary software MegaLab (curve fitting based on the program PRISM, GraphPad Inc.)."}, "[2]": {"test_system": "SK-CO-1 cells", "experiment": "SK-CO-1 CTG proliferation assay (120 h) (CRC, G12V)", "conditions": "read-out: SK-CO-1 IC50; SK-CO-1 cells (CRC, G12V), CTG 120 h", "method": "SK-CO-1 CTG Proliferation Assay (120 h) (CRC, G12V)\nSK-CO-1 cells (ATCC HTB-39) are dispensed into 384-well plates, flat and clear bottom (Greiner, PNr. 781091) at a density of 500 cells per well in 60 μL EMEM (Sigma M5650)+10% Fetal Calf Serum (HyClone, PNr.: SH30084.03) and incubated at 37° C. in a CO2 incubator overnight. The next day, compounds (10 mM stock in DMSO) are added with the ECHO acoustic liquid handler system (Beckman Coulter), including DMSO controls. Plates are incubated for 120 h, and cell viability is measured using CellTiter-Glo luminescent cell viability reagent (Promega product code G7570). Viability (stated as percent of control) is defined as relative luminescence units RLU of each well divided by the RLU of cells in DMSO controls. IC50 values are determined from viability measurements by non-linear regression using a four-parameter model."}, "[3]": {"target": "CYP3A4 (Homo sapiens (Human), UniProt P08684)", "experiment": "Mechanism based inhibition of CYP3A4 assay (MBI 3A4)", "conditions": "hydroxy-midazolam formation after 30 min vs 0 min preincubation, 25 uM, human liver microsomes"}}, "data": [{"compound": "Cc1ccncc1-c1cn(-c2cc(O[C@@H](C)[C@@H]3CCCN3C)nc(-c3noc4c3CCC[C@@]43CCCc4sc(N)c(C#N)c43)n2)nn1", "values": [{"measurement": "IC50", "setting": "[1]", "result": 6, "unit": "nM"}, {"measurement": "IC50", "setting": "[2]", "result": 62, "unit": "nM"}, {"measurement": "MBI 3A4", "setting": "[3]", "result": 54, "unit": "%"}]}]}
